# Experimental data reported in patent publication US20240252795A1, “INGESTIBLE DEVICE FOR DELIVERY OF THERAPEUTIC AGENT TO THE GASTROINTESTINAL TRACT” (BIORA THERAPEUTICS, INC., priority 2018, published 2024).
# Test: PK of regular human insulin (NOVOLIN R) after SC or intra-jejunal jet delivery, blood insulin levels
# Assay type: in vivo, swine
substance,measurement,setting,value
NOVOLIN® R: regular human insulin (NOVOLIN® R),Tmax,"IJ administration by jet delivery device, blood insulin, individual animal",1.25 h
same,Tmax of blood insulin,"SC administration, swine, individual animals",1.25 h
